This is an account of results in patent US6380198B1 (Laboratoire Medidom S.A., priority 1997, dated 2002).

The series relates to cornea (corneal thickness). As to conditions: rabbit, in vivo.

With `COc1ccc([C@@H]2Sc3ccccc3N(CCN(C)C)C(=O)[C@@H]2OC(C)=O)cc1` [diltiazem], the “Corneal thickness (mm): 2 hours” value was 0.394 mm.
